Source: patent US6465479B1, “Pyridomorphinans and use thereof” (Southern Research Institute, priority 1999, dated 2002)

Sequences of proteins named here, by UniProt entry; tags and fusion partners are left off.
UniProt P33535, whole entry: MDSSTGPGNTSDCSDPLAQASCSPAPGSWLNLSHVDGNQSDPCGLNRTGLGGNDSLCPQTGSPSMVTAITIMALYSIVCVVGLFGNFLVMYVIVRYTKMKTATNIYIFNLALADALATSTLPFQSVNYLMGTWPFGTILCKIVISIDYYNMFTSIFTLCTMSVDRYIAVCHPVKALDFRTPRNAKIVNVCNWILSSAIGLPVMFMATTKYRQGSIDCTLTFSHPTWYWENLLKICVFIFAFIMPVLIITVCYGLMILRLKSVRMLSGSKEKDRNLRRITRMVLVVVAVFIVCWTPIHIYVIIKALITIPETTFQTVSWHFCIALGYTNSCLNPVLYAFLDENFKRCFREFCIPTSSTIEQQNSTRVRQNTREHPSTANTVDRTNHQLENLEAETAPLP

Biological target: T1, μ receptors (Rattus norvegicus, UniProt P33535)
T1 construct: [^3H]DAMGO and [^3H]DADLE to rat brain membranes; from tissue; host or cells: rat brain membranes
Test: μ opioid receptor binding, displacement of [3H]DAMGO in rat brain membranes
Settings: displacement of [3H]DAMGO (1.4-3.0 nM), read-out: K1 (nM) ± SEM μ

Structure (SMILES): Oc1ccc2c3c1O[C@H]1c4[nH]c5ccccc5c4C[C@@]4(O)[C@@H](C2)N(CC2CC2)CC[C@]314 [naltrindole, reference compound]
- Ki: 99 ± 4.6 nM
